Experimental data published in US20110111972A1, “SELECTIVITY PROFILING OF PI3K INTERACTING MOLECULES AGAINST MULTIPLE TARGETS” (CELLZOME AG, priority 2008, published 2011).

Amino acid sequences for entries named in this document (tags omitted). A change or cut given only in a name is not applied to a line headed by its entry.
UniProt P48736: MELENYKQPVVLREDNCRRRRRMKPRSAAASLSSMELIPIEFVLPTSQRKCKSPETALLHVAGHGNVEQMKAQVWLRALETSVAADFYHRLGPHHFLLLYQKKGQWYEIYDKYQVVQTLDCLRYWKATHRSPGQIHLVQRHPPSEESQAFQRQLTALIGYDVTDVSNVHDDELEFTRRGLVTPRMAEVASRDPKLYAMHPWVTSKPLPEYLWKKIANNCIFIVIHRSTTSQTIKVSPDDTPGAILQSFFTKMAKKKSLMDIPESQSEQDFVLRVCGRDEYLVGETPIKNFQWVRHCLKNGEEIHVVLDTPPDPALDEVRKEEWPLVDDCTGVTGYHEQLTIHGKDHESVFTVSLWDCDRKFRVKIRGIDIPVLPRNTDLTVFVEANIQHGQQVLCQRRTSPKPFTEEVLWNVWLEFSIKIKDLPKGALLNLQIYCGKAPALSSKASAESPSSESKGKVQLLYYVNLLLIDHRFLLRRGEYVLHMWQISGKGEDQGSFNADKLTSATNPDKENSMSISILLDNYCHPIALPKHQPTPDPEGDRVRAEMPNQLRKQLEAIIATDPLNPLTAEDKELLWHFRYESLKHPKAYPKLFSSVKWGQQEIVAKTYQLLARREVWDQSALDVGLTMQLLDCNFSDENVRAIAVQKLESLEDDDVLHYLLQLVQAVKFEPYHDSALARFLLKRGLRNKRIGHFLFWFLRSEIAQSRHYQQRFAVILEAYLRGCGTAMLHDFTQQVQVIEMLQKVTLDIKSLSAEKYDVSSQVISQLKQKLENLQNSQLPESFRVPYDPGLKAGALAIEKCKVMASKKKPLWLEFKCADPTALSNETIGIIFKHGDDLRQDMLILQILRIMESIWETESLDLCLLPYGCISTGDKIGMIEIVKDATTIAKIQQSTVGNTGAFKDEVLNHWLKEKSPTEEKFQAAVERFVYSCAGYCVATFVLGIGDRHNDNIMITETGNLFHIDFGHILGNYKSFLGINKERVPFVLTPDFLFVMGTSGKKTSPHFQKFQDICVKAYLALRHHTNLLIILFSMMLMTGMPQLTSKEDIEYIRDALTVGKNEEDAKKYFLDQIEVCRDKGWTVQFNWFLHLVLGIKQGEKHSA

Columns and labels:
[1] = target: T1, PI3K gamma (Homo sapiens, UniProt P48736); assay: Competitive binding assay for PI3K gamma interacting compounds in cell lysate (dot blot)
[2] = target: T1, PI3K gamma; assay: Elution assay for PI3K gamma interacting compounds (elution from immobilized phenylthiazole ligand 1, dot blot); format: binding; parameters: PI3K gamma protein was captured by immobilized phenylthiazole ligand 1 from MOLT-4 cell lysate; endogenous in cells; host or cells: MOLT-4 (ATCC CRL-1582) cell lysate; details: elution of PI3K gamma captured from MOLT-4 cell lysate by immobilized phenylthiazole ligand 1

- IC50 [1]: > 30 µM
- IC50 [2]: > 100 µM
SMILES: O=c1cc(N2CCOCC2)oc2c(-c3ccccc3)cccc12 [Compound 1]
